Laboratory results: patent publication US20250289888A1

Sequences of proteins named here, by UniProt entry; tags and fusion partners are left off. Residues count along the entry.
UniProt P08637, 17-254, stated change not applied: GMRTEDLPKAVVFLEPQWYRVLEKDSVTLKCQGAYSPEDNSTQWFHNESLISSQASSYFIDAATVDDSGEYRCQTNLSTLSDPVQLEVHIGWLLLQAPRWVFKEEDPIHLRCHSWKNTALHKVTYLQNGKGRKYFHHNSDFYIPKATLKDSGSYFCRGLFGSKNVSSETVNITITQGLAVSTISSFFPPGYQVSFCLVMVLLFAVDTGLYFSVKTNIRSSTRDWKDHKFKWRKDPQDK
UniProt P31994, 43-310: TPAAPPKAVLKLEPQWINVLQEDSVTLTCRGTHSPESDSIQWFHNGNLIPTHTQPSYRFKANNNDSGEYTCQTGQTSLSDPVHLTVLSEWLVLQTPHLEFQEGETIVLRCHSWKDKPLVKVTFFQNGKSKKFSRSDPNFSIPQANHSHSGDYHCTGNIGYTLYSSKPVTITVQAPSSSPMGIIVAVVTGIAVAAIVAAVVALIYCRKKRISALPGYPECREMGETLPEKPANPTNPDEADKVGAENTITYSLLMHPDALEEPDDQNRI
UniProt P08508, 31-261: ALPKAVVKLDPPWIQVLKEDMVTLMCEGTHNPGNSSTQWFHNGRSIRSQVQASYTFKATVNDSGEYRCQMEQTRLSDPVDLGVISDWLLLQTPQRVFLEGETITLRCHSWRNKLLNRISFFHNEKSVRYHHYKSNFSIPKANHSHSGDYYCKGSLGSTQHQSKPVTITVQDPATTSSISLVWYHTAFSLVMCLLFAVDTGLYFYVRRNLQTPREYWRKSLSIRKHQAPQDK
UniProt P12318, 34-317, stated change not applied: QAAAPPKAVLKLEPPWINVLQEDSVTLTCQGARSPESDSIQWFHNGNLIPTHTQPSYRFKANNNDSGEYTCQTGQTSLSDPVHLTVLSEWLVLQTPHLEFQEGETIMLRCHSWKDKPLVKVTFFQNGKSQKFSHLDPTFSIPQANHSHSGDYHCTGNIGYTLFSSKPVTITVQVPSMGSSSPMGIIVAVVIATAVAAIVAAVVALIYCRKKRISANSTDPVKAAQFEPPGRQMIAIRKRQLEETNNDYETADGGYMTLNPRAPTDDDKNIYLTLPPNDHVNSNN

Tests used:
Assay in all cases: cell-based or functional assay
[1] = biological target: human FcγRIIIa, V variant (human) (UniProt P08637)
human FcγRIIb (human) = human FcγRIIb (human) (UniProt P31994)
mouse FcγRIII (mouse) = mouse FcγRIII (mouse) (UniProt P08508)
[2] = biological target: human FcγRIIIa, F variant (human) (UniProt P08637)
[3] = biological target: human FcγRIIa, R variant (human) (UniProt P12318)
[4] = biological target: human FcγRIIa, H variant (human) (UniProt P12318)
mouse FcγRIV (mouse) = biological target: mouse FcγRIV (mouse)

EC50 (ug/mL), Plate 1, hFcγRIIIa Fc effector activity bioassay [1] | EC50 (ug/mL), Plate 2, hFcγRIIIa Fc effector activity bioassay [1] [µg/mL] | Maximum luminescence (RLU) (human FcγRIIb (human)) | Maximum luminescence (RLU) (mouse FcγRIII (mouse)) | Maximum luminescence (RLU) [1] [RLU] | Maximum luminescence (RLU) [2] [RLU] | Maximum luminescence (RLU) [3] [RLU] | Maximum luminescence (RLU) [4] [RLU] | Maximum luminescence (RLU) (mouse FcγRIV (mouse)) | Substance
0.0036 µg/mL and 0.0048 µg/mL | 0.0102 |  |  |  |  |  |  |  | GIGA-564 (antibody)
 |  | 978 | 1160 | 4260 | 2430 | 1570 | 210 | 297 | GIGA-564_LALA-PG (antibody)

“And” between values parts separate entries of the source, which are not always exact repeats. Equal values may be shown once.
